{
  "source": "patent US6589223B1",
  "about": "“Method and compositions for use in perfusion applications” (BioTime, Inc., priority 1999, dated 2003)",
  "origin": "cited, not measured here",
  "details": "artificial oncotic agents; Messmer (1989)",
  "data": [
    {"substance": "dextran 70", "values": [
      {"measurement": "intravascular persistence rates", "value": 6, "unit": "h"}
    ]},
    {"substance": "dextran 40", "values": [
      {"measurement": "intravascular persistence rates", "value": "2 to 3", "unit": "h"}
    ]}
  ]
}
